Earlier results in patent US4668705A, “Sebosuppressive preparations containing alkoxyaryl alkanols” (Henkel Kommanditgesellschaft auf Aktien, priority 1983, dated 1987).

System: seborrhea of the scalp
Details: after prolonged use; prior art; cited from earlier work

In the case of mercury, the “side effects of known additives” value is given as “frequently produce side effects after prolonged use”.
